Biological target: cathepsin B (Homo sapiens, UniProt P07858)
Assay: fluorogenic Z-Phe-Arg-AMC assay
Format: biochemical
Conditions: 40 μM Z-Phe-Arg-AMC, citrate phosphate pH 5.5, 5 mM DTT, 37 °C; covalent, irreversible

`CCCCCCCNC(=O)[C@@H](NC(=O)[C@H]1O[C@@H]1C(=O)O)C1CCCC1` showed an IC50 of 1.4 nM.
